Measured values: ChEMBL document CHEMBL4616702, “Discovery of BMS-986251: A Clinically Viable, Potent, and Selective RORγt Inverse Agonist” (ACS Med Chem Lett, 2020)

How the values were obtained:
Assay type in all cases: functional, organism-based
Mus musculus [1] = test: Suppression of ear thickness in C57BL/6 mouse model of IL-23 induced acanthosis model of psoriasis at 5 to 45 mg/kg, po BID for 10 days measured every other day
Mus musculus [2] = test: Protection against imiquimod-induced C57BL/6 mouse model of psoriasis assessed as decrease in skin thickening at 2 to 20 mg/kg, po BID with daily dosing for 7 consecutive days and measured post-last dose
Mus musculus [3] = test: Reduction in IL-17 level in orally dosed IL-2/IL-23-stimulated C57BL/6 mouse whole blood measured after 30 mins by AlphaLISA method

C[C@H]1C[C@H](C(=O)O)CC[C@H]1C(=O)N1CC[C@@]2(S(=O)(=O)c3ccc(F)cc3)c3ccc(C(F)(C(F)(F)F)C(F)(F)F)cc3CC[C@@H]12 [BMS-986251]
active: Activity (Mus musculus [1]) | Activity (Mus musculus [2]) | inhibition (Mus musculus [3]) Dose-dependent effect

Calls of active or inactive are those of the source.
